Measured values reported in ChEMBL document CHEMBL4000164, “(+)-and (-)-Phenazocine enantiomers: Evaluation of their dual opioid agonist/σ1 antagonist properties and antinociceptive effects” (Eur J Med Chem, 2017).

Legend:
[1] = target: T1, Sigma non-opioid intracellular receptor 1 (Cavia porcellus, UniProt Q60492); assay: Displacement of [3H]-PTZ from sigma1 receptor in guinea pig brain membranes after 150 mins in presence of DPH solvent by liquid scintillation counting method
[2] = target: T1, Sigma non-opioid intracellular receptor 1; assay: Displacement of [3H]-PTZ from sigma1 receptor in guinea pig brain membranes after 150 mins in presence of 1 mM DPH by liquid scintillation counting method
[3] = target: T1, Sigma non-opioid intracellular receptor 1; assay: Displacement of [3H]-(+)-pentazocin from sigma1 receptor in guinea pig brain P2 membranes after 120 mins

SMILES: C[C@@H]1[C@@H]2Cc3ccc(O)cc3[C@@]1(C)CCN2CCc1ccccc1
- Ki [1]: 4.3 nM
- Ki [2]: 3.8 nM
- Ki [3]: 55 nM

SMILES: C[C@H]1[C@H]2Cc3ccc(O)cc3[C@]1(C)CCN2CCc1ccccc1
- Ki [1]: 80 nM
- Ki [2]: 85 nM
- Ki [3]: 0.2 nM
